Values of other authors in patent US7161029B2, “DiL-lysine monosulfate trihydrate crystal and method of making” (Ajinomoto Co., Inc., priority 2003, dated 2007).

Conditions: known from the art; cited from earlier work

Substance: anhydrous diL-lysine sulfate
- solubility in water: highly soluble
